Drawing on patent US20160031868A1, “BENZIMIDAZOLONE DERIVATIVES AS BROMODOMAIN INHIBITORS” (GILEAD SCIENCES, INC., priority 2013, published 2016), this text covers Ki for one compound.

In the assay the target is T1, BRD4-2 (Homo sapiens, UniProt O60885).
T1 construct: made in house; host or cells: Escherichia coli
Put plainly: BRD4-2 Ligand KI assay (TR-FRET displacement of Cy5 labeled probe). As to conditions: 10 nM labeled ligand, 0.5 nM BRD4-2; Ki from IC50 by Cheng and Prusoff; read-out: BRD4-2 Ligand K2. In kind it is binding. On the procedure: Binding of the two tandem bromodomains, BRD4-I and BRD4-2, to a Cy5 labeled probe/ligand (Compound 201-A) were measured using a homogeneous time resolved fluorescence resonance energy transfer (TR-FRET) assay.
The labeled ligand specifically binds BRD4-1 and BRD4-2 and can be displaced by a small molecule inhibitor that shares a similar or overlapping binding site. BRD4-I and BRD4-2 were expressed and purified from Escherichia coli as N-terminal His6-tagged proteins. A Eu-cryptate labeled anti-His antibody (Perkin Elmer) was used to specifically bind BRD4. […] Assays were performed in 50 mM Hepes (pH 7.5), 150 mM NaCl, 0.1 mg/ml BSA, 0.01% (v/v) Brij, 0.5% (v/v) DMSO and 10 nM labeled ligand at the following concentrations for each BRD4 isoform: 2 nM BRD4-1 and 0.5 nM BRD4-2. After an assay reaction time of 60 minutes at 25° C., binding was measured with 2 nM Eu-cryptate labeled anti-His antibody. TR-FRET signal was detected on an Envision plate reader (Ex: 320 nm; Em: 615/665 nm; 100 μs delay and 200 μs read window). Data were normalized based on a positive (2 μM I-BET) and negative (DMSO) controls and IC50 values were calculated from the fit of the dose-response curves to a four-parameter equation. All IC50 values represent geometric mean values of a minimum of four determinations. […]

Consider `Cc1noc(C)c1-c1cc(C(O)(c2cnccn2)c2c(F)cccc2F)c2[nH]c(=O)[nH]c2c1` (stereo not shown) [Example 49, 4-((2,6-difluorophenyl)(hydroxy)(pyrazin-2-yl)methyl)-6-(3,5-dimethylisoxazol-4-yl)-1H-benzo[d]imidazol-2(3H)-one], for which the Ki is 2.7 nM.
